# CycPeptMPDB entries from one study

Data: CycPeptMPDB; original report Townsend et al. 2020, doi:10.26434/chemrxiv.13335941.v1.

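Conditions beyond the assay type are not listed; see the original paper. Other peptides of the study may be missing here. Peptides that the database sets to -10, its floor, are left out.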

PAMPA measures passive passage through an artificial lipid membrane. Values are log10 P with P in cm/s, so -5 is more permeable than -7.

- CCCN1CC(=O)N(C)[C@H](CC(C)C)C(=O)N(C)[C@H](CC(C)C)C(=O)N2CCC[C@@H]2C(=O)N[C@H](CC(C)C)C(=O)N[C@@H](Cc2ccccc2)C(=O)N2CCC[C@@H]2C1=O: PAMPA -4.89 (log10 cm/s)
- CC(C)C[C@@H]1NC(=O)[C@@H](C)NC(=O)[C@@H]2CCCN2C(=O)[C@H](Cc2ccccc2)NC(=O)[C@H](CC(C)C)N(C)C(=O)[C@@H]2CCCN2C(=O)CN(Cc2ccccc2)C1=O: PAMPA -5.75 (log10 cm/s)
- CC(C)C[C@H]1NC(=O)[C@@H]2CCCN2C(=O)CN(Cc2ccccc2)C(=O)[C@@H](CC(C)C)NC(=O)[C@@H](C)N(C)C(=O)[C@@H]2CCCN2C(=O)[C@H](Cc2ccccc2)NC1=O: PAMPA -5.98 (log10 cm/s)
- CC(C)C[C@H]1C(=O)N[C@@H](Cc2ccccc2)C(=O)N2CCC[C@H]2C(=O)N[C@@H](Cc2ccccc2)CC(=O)N(Cc2ccccc2)CC(=O)N[C@@H](Cc2ccccc2)CC(=O)N2CCC[C@H]2C(=O)N1C: PAMPA -6.01 (log10 cm/s)
- CCCN1CC(=O)N(C)[C@H](CC(C)C)C(=O)N(C)[C@H](CC(C)C)C(=O)N2CCC[C@@H]2C(=O)N(C)[C@H](CC(C)C)C(=O)N[C@@H](Cc2ccccc2)C(=O)N2CCC[C@@H]2C1=O: PAMPA -5.38 (log10 cm/s)
- CC(C)C[C@@H]1C(=O)N2CCC[C@@H]2C(=O)N(Cc2ccccc2)CC(=O)N[C@@H](Cc2ccccc2)C(=O)N2CCC[C@@H]2C(=O)N(C)[C@@H](C)C(=O)N[C@H](CC(C)C)C(=O)N1C: PAMPA -5.36 (log10 cm/s)
- CC(C)C[C@@H]1NC(=O)[C@@H]2CCCN2C(=O)C[C@H](Cc2ccccc2)NC(=O)[C@H](CC(C)C)N(C)C(=O)[C@H](C)NC(=O)[C@H]2CCCN2C(=O)[C@H](Cc2ccccc2)NC1=O: PAMPA -5.65 (log10 cm/s)
- CC(C)C[C@@H]1NC(=O)[C@H]2CCCN2C(=O)[C@H](CC(C)C)NC(=O)[C@H](CC(C)C)N(C)C(=O)C[C@H](Cc2ccccc2)NC(=O)[C@H](Cc2ccccc2)NC1=O: PAMPA -5.39 (log10 cm/s)
- CC(C)C[C@H]1NC(=O)[C@H](C)N(C)C(=O)[C@H](Cc2ccccc2)NC(=O)CN(Cc2ccccc2)C(=O)[C@H]2CCCN2C(=O)[C@@H](CC(C)C)NC1=O: PAMPA -6.02 (log10 cm/s)
- CC(C)C[C@@H]1NC(=O)[C@@H](CC(C)C)N(C)C(=O)C[C@H](Cc2ccccc2)NC(=O)[C@H](Cc2ccccc2)NC(=O)[C@H](CC(C)C)N(C)C(=O)[C@@H]2CCCN2C1=O: PAMPA -5.10 (log10 cm/s)
- CC(C)C[C@@H]1NC(=O)[C@@H](CC(C)C)N(C)C(=O)[C@@H](C)NC(=O)[C@H](Cc2ccccc2)NC(=O)CN(Cc2ccccc2)C(=O)[C@@H]2CCCN2C1=O: PAMPA -5.44 (log10 cm/s)
- CC(C)C[C@@H]1C(=O)N(C)[C@@H](CC(C)C)C(=O)N2CCC[C@H]2C(=O)N(C)[C@H](CC(C)C)C(=O)N[C@@H](Cc2ccccc2)C(=O)N[C@@H](C)C(=O)N1C: PAMPA -4.88 (log10 cm/s)
- CC(C)C[C@@H]1NC(=O)[C@H]2CCCN2C(=O)[C@H](CC(C)C)NC(=O)[C@@H](CC(C)C)NC(=O)C[C@H](Cc2ccccc2)NC(=O)[C@H](Cc2ccccc2)NC1=O: PAMPA -4.80 (log10 cm/s)
- CCCN1CC(=O)N[C@H](CC(C)C)C(=O)N(C)[C@@H](CC(C)C)C(=O)N2CCC[C@@H]2C(=O)N[C@H](CC(C)C)C(=O)N[C@@H](Cc2ccccc2)C(=O)N2CCC[C@@H]2C1=O: PAMPA -5.65 (log10 cm/s)
- CC(C)C[C@@H]1NC(=O)[C@@H](CC(C)C)N(C)C(=O)[C@H](C)NC(=O)[C@H](Cc2ccccc2)NC(=O)[C@H](CC(C)C)N(C)C(=O)[C@H]2CCCN2C1=O: PAMPA -4.89 (log10 cm/s)
- CC(C)C[C@@H]1NC(=O)CN(Cc2ccccc2)C(=O)[C@@H](C)N(C)C(=O)[C@H]2CCCN2C(=O)[C@H](Cc2ccccc2)NC(=O)[C@@H](CC(C)C)N(C)C(=O)[C@@H]2CCCN2C1=O: PAMPA -5.17 (log10 cm/s)
- CC(C)C[C@@H]1C(=O)N2CCC[C@H]2C(=O)N(Cc2ccccc2)CC(=O)N[C@@H](Cc2ccccc2)C(=O)N2CCC[C@H]2C(=O)N(C)[C@@H](C)C(=O)N(C)[C@@H](CC(C)C)C(=O)N1C: PAMPA -5.48 (log10 cm/s)
- CC(C)C[C@@H]1NC(=O)C[C@H](Cc2ccccc2)NC(=O)[C@H]2CCCN2C(=O)[C@H](Cc2ccccc2)NC(=O)[C@H](CC(C)C)NC(=O)[C@@H]2CCCN2C(=O)[C@@H](CC(C)C)NC1=O: PAMPA -5.62 (log10 cm/s)
- CC(C)C[C@@H]1NC(=O)CN(Cc2ccccc2)C(=O)[C@H](C)N(C)C(=O)[C@@H]2CCCN2C(=O)[C@H](Cc2ccccc2)NC(=O)[C@H](CC(C)C)N(C)C(=O)[C@H]2CCCN2C1=O: PAMPA -5.43 (log10 cm/s)
- CC(C)C[C@@H]1NC(=O)C[C@H](Cc2ccccc2)NC(=O)[C@@H]2CCCN2C(=O)[C@H](Cc2ccccc2)NC(=O)[C@@H](CC(C)C)NC(=O)[C@@H]2CCCN2C(=O)[C@@H](CC(C)C)N(C)C1=O: PAMPA -5.74 (log10 cm/s)
- CCCN1CC(=O)N(C)[C@@H](CC(C)C)C(=O)N[C@@H](Cc2ccccc2)CC(=O)N2CCC[C@H]2C(=O)N(C)[C@H](CC(C)C)C(=O)N[C@@H](Cc2ccccc2)C(=O)N2CCC[C@@H]2C1=O: PAMPA -5.77 (log10 cm/s)
- CC(C)C[C@@H]1C(=O)N(C)[C@@H](CC(C)C)C(=O)N2CCC[C@H]2C(=O)N(Cc2ccccc2)CC(=O)N[C@@H](Cc2ccccc2)C(=O)N[C@@H](C)C(=O)N1C: PAMPA -5.30 (log10 cm/s)
- CCCN1CC(=O)N(C)[C@@H](CC(C)C)C(=O)N(C)[C@@H](CC(C)C)C(=O)N2CCC[C@@H]2C(=O)N(Cc2ccccc2)CC(=O)N[C@@H](Cc2ccccc2)C1=O: PAMPA -5.19 (log10 cm/s)

A selection of 2 entries from above:

structure (SMILES)	PAMPA (log10 cm/s)
CC(C)C[C@@H]1NC(=O)C[C@H](Cc2ccccc2)NC(=O)[C@H]2CCCN2C(=O)[C@H](Cc2ccccc2)NC(=O)[C@H](CC(C)C)NC(=O)[C@@H]2CCCN2C(=O)[C@@H](CC(C)C)NC1=O	-5.62
CC(C)C[C@@H]1NC(=O)[C@H]2CCCN2C(=O)[C@H](CC(C)C)NC(=O)[C@@H](CC(C)C)NC(=O)C[C@H](Cc2ccccc2)NC(=O)[C@H](Cc2ccccc2)NC1=O	-4.80